{
  "sequences": {"note": "Amino acid sequences for entries named in this document (tags omitted). A change or cut given only in a name is not applied to a line headed by its entry.", "UniProt P01116": "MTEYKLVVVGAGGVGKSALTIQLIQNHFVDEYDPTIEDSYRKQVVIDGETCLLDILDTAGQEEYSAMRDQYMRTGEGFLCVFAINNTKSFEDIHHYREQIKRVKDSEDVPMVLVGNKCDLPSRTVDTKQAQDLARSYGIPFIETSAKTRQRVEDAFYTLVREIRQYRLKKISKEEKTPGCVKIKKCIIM"},
  "source": "patent US20250368649A1",
  "about": "“TETRAHYDROPYRIDOPYRIMIDINE PAN-KRAS INHIBITORS” (Mirati Therapeutics, Inc., priority 2022, published 2025)",
  "key": {"H460 cells": {"system": "H460 cells", "assay": "Inhibition of KRas-mediated phosphorylation of ERK (Cisbio HTRF pERK), H460 cells", "type": "cell-based", "details": "single point at 100 nM, 3 hrs compound incubation"}, "A549 cells": {"system": "A549 cells", "assay": "Inhibition of KRas-mediated phosphorylation of ERK (Cisbio HTRF pERK), A549 cells", "type": "cell-based", "details": "single point at 100 nM, 3 hrs compound incubation"}, "KRas G12D": {"biological_target": "KRas G12D (Homo sapiens, UniProt P01116, G12D)", "assay": "KRas binding assay (TR-FRET displacement), KRas G12D", "details": "read-out: Binding to KRas (IC50 nM) G12D"}, "KRas G12R": {"biological_target": "KRas G12R (Homo sapiens, UniProt P01116, G12R)", "assay": "KRas binding assay (TR-FRET displacement), KRas G12R", "details": "read-out: Binding to KRas (IC50 nM) G12R"}, "HCT116 cells": {"system": "HCT116 cells", "assay": "Inhibition of KRas-mediated phosphorylation of ERK (Cisbio HTRF pERK), HCT116 cells", "type": "cell-based", "details": "single point at 100 nM, 3 hrs compound incubation"}, "KRas G12V": {"biological_target": "KRas G12V (Homo sapiens, UniProt P01116, G12V)", "assay": "KRas binding assay (TR-FRET displacement), KRas G12V", "details": "read-out: Binding to KRas (IC50 nM) G12V"}, "H727 cells": {"system": "H727 cells", "assay": "Inhibition of KRas-mediated phosphorylation of ERK (Cisbio HTRF pERK), H727 cells", "type": "cell-based"}, "H358 cells": {"system": "H358 cells", "assay": "Inhibition of KRas-mediated phosphorylation of ERK (Cisbio HTRF pERK), H358 cells", "type": "cell-based", "details": "single point at 100 nM, 3 hrs compound incubation"}, "ASPC1 cells": {"system": "ASPC1 cells", "assay": "Inhibition of KRas-mediated phosphorylation of ERK (Cisbio HTRF pERK), ASPC1 cells", "type": "cell-based", "details": "AsPC-1 cells"}, "[1]": {"details": "single point at 100 nM, 3 hrs compound incubation"}},
  "data": [
    {"smiles": "CCc1c(F)ccc2cc(O)cc(N3CCc4c(nc(OC[C@@]56CCCN5C[C@H](F)C6)nc4N4CCCn5nc(NP(C)(C)=O)cc5C4)C3)c12", "values": [
      {"measurement": "Inhibition (HTRF % at 100 nM) of KRas-mediated Phosphorylation of ERK, H460", "setting": "H460 cells", "result": 7, "unit": "%"},
      {"measurement": "Inhibition (HTRF % at 100 nM) of KRas-mediated Phosphorylation of ERK, A549", "setting": "A549 cells", "result": "−12", "unit": "%"},
      {"measurement": "IC50", "setting": "KRas G12D", "result": "< 2", "unit": "nM"},
      {"measurement": "IC50", "setting": "KRas G12R", "result": 3, "unit": "nM"},
      {"measurement": "Inhibition (HTRF % at 100 nM) of KRas-mediated Phosphorylation of ERK, HCT116", "setting": "HCT116 cells", "result": 2, "unit": "%"},
      {"measurement": "IC50", "setting": "KRas G12V", "result": 2, "unit": "nM"},
      {"measurement": "IC50", "setting": "H727 cells; read-out: Inhibition (HTRF IC50 nM) of KRas-mediated Phosphorylation of ERK, H727, 3 hr compound incubation, Cisbio pERK HTRF", "result": 3050, "unit": "nM"},
      {"measurement": "Inhibition (HTRF % at 100 nM) of KRas-mediated Phosphorylation of ERK, H727", "setting": "H727 cells; [1]", "result": "−12", "unit": "%"},
      {"measurement": "Inhibition (HTRF % at 100 nM) of KRas-mediated Phosphorylation of ERK, H358", "setting": "H358 cells", "result": 7, "unit": "%"},
      {"measurement": "IC50", "setting": "ASPC1 cells; read-out: Inhibition (HTRF IC50 nM) of KRas-mediated Phosphorylation of ERK, AsPC-1, 3 hr compound incubation, Cisbio pERK HTRF", "result": 1310, "unit": "nM"},
      {"measurement": "Inhibition (HTRF % at 100 nM) of KRas-mediated Phosphorylation of ERK, AsPC-1", "setting": "ASPC1 cells; [1]", "result": 5, "unit": "%"}
    ]}
  ]
}
